Columns and labels:
[1] = Potential anxiolytic activity: mouse exploratory activity in a two-compartment light/dark box; details: s.c.; significant (p<0.05) increase in rearing activity in the light section; tested form: fumarate
Method: Compound A, the compound of GB 2236528A and a representative number of compounds disclosed in GB 2213816A which had high pA2 values in the 5-HT3 -antagonist test procedure given above were tested for potential anxiolytic activity by a test procedure measuring mouse exploratory activity in a two-compartment light/dark box based upon the procedure of B Costall et al, Neuropharmacology, 1987, 26, 195-200 and J. N. Crawley et al, Pharmac. Biochemo Behav., 1980, 13, 167-170. The test involves observing groups of mice placed in an open topped box, one third of which is painted black and illuminated under a dim red light and partitioned from the remainder of the box which is painted white and brightly illuminated. Access between the two sections is via an opening in the centre of the partition. The groups of mice are treated with vehicle or test compound and various behavioural parameters of the animals are measured including the number of exploratory rearings made by the mice in each section and the number of times the mice cross lines marked on the floor of each section. For each treatment group the mean numbers of line crossings and rears in each section of the box are calculated. Differences between drug-treated groups and vehicle-treated controls are compared using Student's unpaired t-test. […]

The chains behind the UniProt entries cited, without tags or fusion partners. Residues count along the entry.
UniProt P35563, 24-483 limits assumed: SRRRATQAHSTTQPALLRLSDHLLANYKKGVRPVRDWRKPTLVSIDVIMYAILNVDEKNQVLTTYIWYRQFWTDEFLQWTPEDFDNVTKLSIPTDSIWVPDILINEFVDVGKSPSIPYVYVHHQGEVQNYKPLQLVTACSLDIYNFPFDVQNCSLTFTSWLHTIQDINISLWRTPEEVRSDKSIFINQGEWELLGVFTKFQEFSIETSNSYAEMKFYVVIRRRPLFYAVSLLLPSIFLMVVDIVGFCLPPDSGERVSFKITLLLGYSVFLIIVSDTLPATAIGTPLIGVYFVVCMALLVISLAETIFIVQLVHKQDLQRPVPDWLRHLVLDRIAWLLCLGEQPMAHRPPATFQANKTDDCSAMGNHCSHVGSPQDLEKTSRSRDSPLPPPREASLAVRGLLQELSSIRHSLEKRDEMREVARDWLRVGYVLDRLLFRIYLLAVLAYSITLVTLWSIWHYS

[2] = biological target: 5-HT3 receptors (Rattus norvegicus, UniProt P35563); assay: 5-HT3 antagonistic activity in the rat vagus (antagonism of 5-HT depolarization of isolated vagus nerve, Schild analysis); set-up: species or system rat (Sprague-Dawley); details: rat vagus nerve in vitro, tested form: fumarate
Method: Compound A, the compound of GB 2236528A and the compounds disclosed in GB 2213816A are tested for 5-HT3 antagonistic activity in the rat vagus by the following procedure:
The method is similar to that described by Ireland and Tyers, Br. J. Pharmac., 1987, 90, 229-238 and is dependent upon the ability of 5-HT to depolarize the vagus nerve in vitro.
Segments of the vagus nerve from Sprague-Dawley rats were placed in a perspex chamber and perfused with Krebs solution. Electrodes, positioned at either end of the nerve segment, were used to record the potential differences which ensued upon the addition of various concentrations of 5-HT to one end of the nerve segment.
Concentration-response curves to 5-HT were obtained in this manner prior to and following equilibration of the nerve segment with Krebs solution containing the test-substance.

COc1ccccc1C(=O)NC(=O)NC1CN2CCC1CC2 (centres unmarked)
minimum effective dose (MED) [1]: 0.1 mg/kg | pA2 [2]: 8.0
